Key:
MCF-7 cells = experiment: Cytotoxicity of GrB/IgG constructs; type: cell-based; details: MCF-7, do not express Her2
Text: The constructs above were expressed in mammalian cells from a bicistronic expression vector arranged such that the heavy and light chain antibody polypeptides (or fusions thereof) were secreted. Assembled antibody fusion constructs were purified from the cell media.

NCI-N87 [1] = experiment: In vitro cytotoxic effects of GrB-based fusions, crystal violet; type: cell-based; details: Table 11, NCI-N87, 72 h exposure
NCI-N87 [2] = experiment: Cytotoxic effects of GrB/4D5 fusion constructs with and without a translocation domain; type: cell-based; details: NCI-N87, Her2 Exp. High
Text: (§1) Further GrB expression constructs were developed and tested.
(§2) These constructs were expressed and tested.

SKOV3 = experiment: as above; type: cell-based; details: SKOV3, Her2 Exp. High
Text: as §1, §2

MDA-MB-453 = experiment: as above; type: cell-based; details: MDA-MB-453, Her2 Exp. High
Text: as §1, §2

Me-180 = experiment: as above; type: cell-based; details: Me-180, Her2 Exp. none
Text: as §1, §2

SKBR3 = experiment: as above; type: cell-based; details: SKBR3, Her2 Exp. High
Text: as §1, §2

MDA MB435 = experiment: In vitro cytotoxic effects of GrB-based fusions, crystal violet; type: cell-based; details: Table 11, MDA MB435, 72 h exposure
[3] = Enzymatic assay of GrB component, continuous colorimetric assay; type: biochemical; details: substrate BAADT, 25° C., native GrB as standard
Experimental: The enzymatic activity of the GrB component was determined in a continuous colorimetric assay using N-α-t-butoxycarbonyl-L-alanyl-L-alanyl-L-aspartyl-thiobenzylester (BAADT) as a specific substrate (Liu et al., 2003). Assays consisted of commercial human GrB (Enzyme Systems Products, Livermore, Calif.) or GrB-based fusion proteins in BAADT at 25° C. The change in absorbance at 405 nm was measured on a Thermomax plate reader (Columbia, Md.). Increases in sample absorbance were converted to enzymatic rates by using an extinction coefficient of 13,100 cm^−1 M^−1 at 405 nm. The specific activity of GrB-based fusion proteins was calculated using native GrB as the standard.

eB-1 = experiment: In vitro cytotoxic effects of GrB-based fusions, crystal violet; type: cell-based, human; details: Table 11, eB-1, 72 h exposure
Me180 = experiment: as above; type: cell-based, human; details: Table 11, Me180, 72 h exposure
Calu3 = experiment: as above; type: cell-based; details: Table 11, Calu3, 72 h exposure
MDA MB453 = experiment: as above; type: cell-based, human; details: Table 11, MDA MB453, 72 h exposure
Her2/neu-positive cells = experiment: In vitro cytotoxic effects of GrB-based fusions, summary over tumor cell lines; details: read-out: IC50 / cytotoxic dose; 72 h exposure, summary of Table 11

Substance | IC50 (MCF-7 cells) [nM] | IC50 (NCI-N87 [1]) [nM] | IC50 (NCI-N87 [2]) [nM] | IC50 (SKOV3) [nM] | IC50 (MDA-MB-453) [nM] | IC50 (Me-180) [nM] | IC50 (SKBR3) [nM] | IC50 (MDA MB435) [nM] | GrB enzymatic activity [3] | IC50 (eB-1) [nM] | IC50 (Me180) [nM] | IC50 (Calu3) [nM] | IC50 (MDA MB453) [nM] | IC50 (Her2/neu-positive cells) [nM]
trastuzumab [Herceptin] | > 1000 |  |  |  |  |  |  |  |  |  |  |  |  | 
GrB/4D5: GrB-G4S/218-4D5(Vl-VH); GrB fused to scFv 4D5 without peptide 26 |  | 629 | > 200 | > 200 | > 200 | > 200 | > 200 | > 750 | 1.54×10^5 U/μmoL | 551 | > 750 | 242 | 436 | > 200

From US11535838B2, “Serine protease molecules and therapies” (Research Development Foundation, priority 2012, dated 2022)
